Source: PMC5652080

Tests used:
purified protein [1] = substrate: O=C(CO)COP(=O)(O)O; test: purified protein; details: active site; 25.0 °C
purified protein [2] = substrate: O=C[C@H](O)COP(=O)(O)O; test: purified protein; details: active site; 25.0 °C

Protein	Km (purified protein [1]) [µM]	kcat (purified protein [1]) [s⁻¹]	kcat/Km (purified protein [1]) [M⁻¹ s⁻¹]	Km (purified protein [2]) [µM]	kcat (purified protein [2]) [s⁻¹]	kcat/Km (purified protein [2]) [M⁻¹ s⁻¹]
Triosephosphate isomerase (WT HsTIM) (Homo sapiens) (protein) APSRKFFVGGNWKMNGRKQSLGELIGTLNAAKVPADTEVVCAPPTAYIDFARQKLDPKIAVAAQNCYKVTNGAFTGEISPGMIKDCGATWVVLGHSERRHVFGESDELIGQKVAHALAEGLGVIACIGEKLDEREAGITEKVVFEQTKVIADNVKDWSKVVLAYEPVWAIGTGKTATPQQAQEVHEKLRGWLKSNVSDAVAQSTRIIYGGSVTGATCKELASQPDVDGFLVGGASLKPEFVDIINAKQ	180 ± 30	2.5	13800	140 ± 10	4000 ± 1000	2.83e+07
Triosephosphate isomerase (G233D HsTIM) (Homo sapiens; G233D) (protein) APSRKFFVGGNWKMNGRKQSLGELIGTLNAAKVPADTEVVCAPPTAYIDFARQKLDPKIAVAAQNCYKVTNGAFTGEISPGMIKDCGATWVVLGHSERRHVFGESDELIGQKVAHALAEGLGVIACIGEKLDEREAGITEKVVFEQTKVIADNVKDWSKVVLAYEPVWAIGTGKTATPQQAQEVHEKLRGWLKSNVSDAVAQSTRIIYGGSVTGATCKELASQPDVDGFLVDGASLKPEFVDIINAKQ	130 ± 20	2.33	18300	180 ± 50	1070 ± 117	6e+06
